These are literature values, as cited in PMC8867396 (Nature, 2021).

The chains behind the UniProt entries cited, without tags or fusion partners.
UniProt Q5BJF2, whole entry: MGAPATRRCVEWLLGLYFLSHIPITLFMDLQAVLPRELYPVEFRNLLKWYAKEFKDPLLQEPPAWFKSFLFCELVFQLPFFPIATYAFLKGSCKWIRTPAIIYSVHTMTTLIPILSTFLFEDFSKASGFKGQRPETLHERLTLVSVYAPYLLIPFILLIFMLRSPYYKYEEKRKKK

The data set addresses human σ2 receptor (Homo sapiens, UniProt Q5BJF2). Particulars: read-out: σ2 affinity; well-established ligand; cited from earlier work.

Regarding `COc1cccc2c1CCCC2CCCN1CCN(C2CCCCC2)CC1` (stereo not shown) [PB28, reference compound], the Ki is 5 nM.
